Experimental data as given in patent publication US20170296682A1, “DERIVATIVES OF DIBENZOTHIOPHENE IMAGING OF alpha-7 NICOTINIC ACETYLCHOLINE RECEPTORS” (THE JOHNS HOPKINS UNIVERSITY, priority 2015, published 2017).

Sequences of proteins named here, by UniProt entry; tags and fusion partners are left off. Residues count along the entry.
UniProt P36544, 23-502 limits assumed: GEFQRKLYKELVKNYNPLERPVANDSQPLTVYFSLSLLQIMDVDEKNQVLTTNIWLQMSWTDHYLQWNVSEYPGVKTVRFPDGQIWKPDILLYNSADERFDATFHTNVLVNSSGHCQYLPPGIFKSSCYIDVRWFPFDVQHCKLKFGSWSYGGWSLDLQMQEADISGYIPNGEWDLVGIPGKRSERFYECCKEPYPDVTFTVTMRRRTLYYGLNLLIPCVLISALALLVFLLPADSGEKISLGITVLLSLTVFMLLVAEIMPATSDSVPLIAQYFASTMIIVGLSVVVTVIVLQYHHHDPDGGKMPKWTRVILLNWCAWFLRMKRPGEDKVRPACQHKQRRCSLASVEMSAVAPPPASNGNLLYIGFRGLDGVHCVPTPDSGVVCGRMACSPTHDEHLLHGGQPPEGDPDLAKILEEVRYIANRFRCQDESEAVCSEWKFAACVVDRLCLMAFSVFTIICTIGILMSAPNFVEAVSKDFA
UniProt P49582, 23-502 limits assumed: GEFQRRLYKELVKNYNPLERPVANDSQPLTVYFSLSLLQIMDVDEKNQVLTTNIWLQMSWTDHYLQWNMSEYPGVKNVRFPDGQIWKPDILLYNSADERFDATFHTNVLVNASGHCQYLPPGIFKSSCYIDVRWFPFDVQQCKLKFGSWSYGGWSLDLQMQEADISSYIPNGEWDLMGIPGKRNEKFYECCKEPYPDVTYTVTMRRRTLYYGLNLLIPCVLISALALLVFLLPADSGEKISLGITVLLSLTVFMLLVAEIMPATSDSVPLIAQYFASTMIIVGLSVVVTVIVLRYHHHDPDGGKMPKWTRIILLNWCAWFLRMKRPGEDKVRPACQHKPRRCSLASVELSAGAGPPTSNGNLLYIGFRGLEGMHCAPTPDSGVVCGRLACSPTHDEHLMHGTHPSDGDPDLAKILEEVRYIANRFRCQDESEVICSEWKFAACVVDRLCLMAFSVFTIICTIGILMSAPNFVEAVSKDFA

Experiments:
[1] = biological target: α7-nAChR (Homo sapiens, UniProt P36544); details: read-out: α7-nAChR, Ki; previously published values, varied assay conditions; cited from earlier work
[2] = biological target: T1, α7-nAChR (Mus musculus, UniProt P49582); details: taken from references or estimated as VT/VND -1 or (cortex uptake/cerebellum uptake) -1; cited from earlier work
[3] = system: α7-nAChR; details: taken from references or estimated as VT/VND -1 or (cortex uptake/cerebellum uptake) -1; cited from earlier work
[4] = biological target: T1, α7-nAChR; experiment: Biodistribution of [125I]14 in mice, baseline and SSR180711 blocking; details: 180 min post injection

| Compound | Ki [1] | BPND in cortex, Mice [2] | BPND in cortex, Monkey or Pig [3] | accumulation of 125I radioactivity, cerebellum [4] | accumulation of 125I radioactivity, frontal cortex [4] | accumulation of 125I radioactivity, hippocampus [4] | accumulation of 125I radioactivity, superior colliculus ([4]; tail vein) |
| --- | --- | --- | --- | --- | --- | --- | --- |
| [11CH3]Nc1cccc(C(=O)OC2CN3CCC2CC3)c1 (stereo not shown) | 40.6 nM | 0.4 | 0.4 |  |  |  |  |
| [^125I] 3-(1 A-Diazabicyclo[3.2.2]nonan-4-yl)-6-iododibenzo[b,d]thiophene 5,5-Dioxide |  |  |  | 0.76 %1.D./g | 2.74 %1.D./g | 2.65 %1.D./g | 3.2 % injected dose/g tissue |
